In patent publication US4113858A, “Novel compounds, compositions and methods of their use” (St. Luke's Hospital, priority 1976, dated 1978):

B1: Basic Protein: native protein isolated from bovine myelin known to induce disease (EAE) (protein, UniProt P02687 1-169, looked up)
Myelin basic protein: AAQKRPSQRSKYLASASTMDHARHGFLPRHRDTGILDSLGRFFGSDRGAPKRGSGKDGHHAARTTHYGSLPQKAQGHRPQDENPVVHFFKNIVTPRTPPPSQGKGRGLSLSRFSWGAEGQKPGFGYGGRASDYKSAHKGLKGHDAQGTLSKIFKLGGRDSRSGSPMARR

Assays:
[1] = tested on: guinea pigs, rabbits and rats; settings: for disease induction (conclusion from Tables 1, 1A and 1B): compared to control Group III
[2] = tested on: guinea pigs, rats and rabbits; assay: Prevention experiments, statements for all three species; type: in vivo; settings: groups I, II and III treated prior to challenge with the disease inducing peptide
Method: Pretreatment of the animals with formula (IX) induced the sensitization of cells with the synthetic disease non-inducing peptide which allows the sensitized cells to recognize any agent with the same structural characteristics. Thus, when the disease inducing peptide or the native basic protein is administered at day 7 it is recognized by the synthetic peptide sensitized cells and prevents the native materials from inducing the disease as it does in the group B test animals.

[3] = tested on: Guinea Pigs; settings: Group 9, 4.0 mg daily

Row | Molecule | disease induction (conclusion from Tables 1, 1A and 1B) [1] | other results
1 | TTHYGSLPQK [Formula (XI), H -- Thr -- Thr -- His -- Tyr -- Gly -- Ser -- Leu -- Pro -- Gln -- Lys -- OH, reference compound] | the disease is induced | 
2 | GGWGGGGQK [Formula (IX), H -- (Gly)2 -- Trp -- (Gly)4 -- Gln -- Lys -- OH] | inactive and does not induce disease | clinical signs of disease (loss of weight, tremors, incontinence) within the expected time, less than 20 days ([1]; 10, 100, 250, 500 and 1500 micrograms single s.c. dose in complete Freund's adjuvant): None of the animals showed any clinical signs of disease; health and growth rate ([1]; observed for more than 90 days): remain healthy and their growth rate is not different from the normal; clinical evidence of the disease after challenge [2]: show no clinical evidence of the disease and remain healthy for 90 days
3 | FSWGAEGQK [Formula (X), H -- Phe -- Ser -- Trp -- Gly -- Ala -- Glu -- Gly -- Gln -- Lys -- OH, reference compound] | the disease is induced | 
4 | FSWQKFSWQKFSWQKFSWQKG [Compound V, H -- Phe -- Ser -- Trp -- Gln -- Lys]4 Gly -- OH] |  | time until paralyzed animals regained the use of their hind legs [3]: 4-6 treatment days
5 | B1 | the disease is induced | 

Ends that are not written are not given here.
